# Test results as given in PubChem BioAssay AID2551 (National Center for Advancing Translational Sciences (NCATS), 2010).
# The chains behind the UniProt entries cited, without tags or fusion partners.
# UniProt P51450, whole entry: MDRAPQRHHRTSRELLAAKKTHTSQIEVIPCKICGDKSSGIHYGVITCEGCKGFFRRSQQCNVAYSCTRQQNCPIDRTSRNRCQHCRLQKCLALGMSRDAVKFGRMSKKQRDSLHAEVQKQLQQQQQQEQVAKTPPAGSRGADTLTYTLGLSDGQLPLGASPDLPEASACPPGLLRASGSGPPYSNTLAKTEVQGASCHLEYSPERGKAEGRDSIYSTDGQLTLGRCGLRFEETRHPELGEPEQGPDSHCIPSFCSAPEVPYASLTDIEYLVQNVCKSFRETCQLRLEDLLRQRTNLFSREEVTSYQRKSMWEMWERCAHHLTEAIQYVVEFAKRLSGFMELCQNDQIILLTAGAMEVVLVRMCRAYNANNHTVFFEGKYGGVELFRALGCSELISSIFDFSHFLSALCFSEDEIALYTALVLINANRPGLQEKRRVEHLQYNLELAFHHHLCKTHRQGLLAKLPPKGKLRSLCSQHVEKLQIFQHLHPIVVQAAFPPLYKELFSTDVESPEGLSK
# The list shows a part of the results, in another mix than the full data. Results filed as inconclusive are left out. Active and inactive are the calls of the source. Calls follow the shape of the dose curve; as a rule, active = well fitted inhibition curve with a large enough effect; inconclusive = small, poorly fitted or top-dose-only effect, or effect the other way; inactive = no such curve, though single readings can be large or run the other way.
# Biological target: Nuclear receptor ROR-gamma (Mus musculus) (UniProt P51450)
# Assay: qHTS for inhibitors of ROR gamma transcriptional activity; also: nearly all actives have a fitted effect of over 60% in size
# Details: Drosophila S2 Gal4-RORgamma UAS-luciferase reporter, 20 h; series mostly up to 53.6 µM; activity change, negative = inhibition: at the top concentration
# % is scaled to controls: 0 for no effect and ±100 for the full control effect; potency is read from the fitted curve at half-maximal effect.
Compound,"activity change, negative = inhibition",Potency
COc1ccc(OP(C)(=O)Nc2cccc(Br)c2)cc1 (configuration not stated),inactive: 6.8%,
COc1ccc(NP(C)(=O)Oc2ccccc2OC)cc1 (configuration not stated),inactive: -22.3%,
CN(C)CCOC(=O)C(O)(c1ccccc1)C1CCCCC1 (configuration not stated),inactive: -42.2%,
Cc1ccc([N+](=O)[O-])c([N+](=O)[O-])c1,inactive: -14.3%,
O=[N+]([O-])c1ccc(OP2(=O)COCCO2)cc1 (configuration not stated),inactive: -0.677%,
CP(=O)(Nc1ccc(SC(F)(F)F)cc1)Oc1ccc(F)cc1 (configuration not stated),inactive: 7.48%,
CCOP(=O)(CC)OCC,inactive: -3.78%,
CCOP(C)(=S)SCC(=O)NC(C)(CC)C(=O)O (configuration not stated),inactive: -29.2%,
CP(=O)(Nc1ccc2c(c1)OCCO2)Oc1ccccc1 (configuration not stated),inactive: -5.67%,
CCN(CCCl)Cc1ccccc1C,inactive: -11.6%,
Cc1ccccc1NP(C)(=O)Nc1ccccc1C,inactive: 14.1% [at 0.365 µM],
CC(C)c1ccc(OP(C)(=O)Nc2ccc(SC(F)(F)F)cc2)cc1 (configuration not stated),inactive: 18.6%,
CP(=O)(Nc1ccccc1F)Oc1ccccc1 (configuration not stated),inactive: 8.85%,
O=C(OCCN1CCN(CCOCc2ccccc2)CC1)C(O)(c1ccccc1)c1ccccc1,inactive: 15.6%,
Cc1cccc([N+](=O)[O-])c1[N+](=O)[O-],inactive: -1.47%,
CCC(C)(OO)OOC(C)(CC)OO (configuration not stated),inactive: -3.36%,
COc1ccc(OP(C)(=O)Nc2ccc(SC(F)(F)F)cc2)cc1 (configuration not stated),inactive: -7.03%,
CCOC(=O)c1ccc(NP(C)(=O)Oc2ccc(F)cc2)cc1 (configuration not stated),inactive: -20.4%,
CCN(CC)CCCOC(=O)C(O)(c1ccccc1)C1CCCCC1 (configuration not stated),inactive: -23.3%,
CP(=O)(Nc1ccccc1)Oc1ccc(F)cc1 (configuration not stated),inactive: 6.28%,
Cc1cc(C)cc(OP(C)(=O)Nc2cccc(C(F)(F)F)c2)c1 (configuration not stated),inactive: -1.03%,
COc1ccc(OP(C)(=O)Nc2ccccc2Br)cc1 (configuration not stated),inactive: 13.8%,

Compound,"activity change, negative = inhibition",Potency
COc1ccccc1OP(C)(=O)Nc1ccc(C)c(C)c1 (configuration not stated),inactive: 16.9%,
CP(=O)(OCCOc1ccccc1)OCCOc1ccccc1,inactive: 14.8%,
CP(=O)(Nc1ccc(Cl)cc1Cl)Oc1ccccc1 (configuration not stated),inactive: -2.73%,
COc1ccccc1OP(C)(=O)Nc1ccc(Br)cc1 (configuration not stated),inactive: 23.3%,
CN(C)CCOC(=O)C(O)(c1ccccc1)C1CCCC1 (configuration not stated),inactive: 3.14%,
COc1ccc(OP(C)(=O)Nc2ccccn2)cc1 (configuration not stated),inactive: 0.0322%,
O=[N+]([O-])c1cc([N+](=O)[O-])c(Nc2ccccn2)c([N+](=O)[O-])c1,inactive: -16.3%,
CCc1ccc(OP(C)(=O)O)cc1,inactive: -3.54%,
COc1ccccc1OP(C)(=O)Nc1ccc(C)cc1C (configuration not stated),inactive: 8.21%,
CP(=O)(Nc1ccccn1)Oc1ccccc1 (configuration not stated),inactive: -12% [at 0.365 µM],
COc1ccc(OP(C)(=O)Nc2ccc(Br)cc2)cc1 (configuration not stated),inactive: 12.8%,
CCN(CC)CC(O)COC(=O)C(O)(c1ccccc1)C1CCCCC1 (configuration not stated),inactive: -5.15%,
CCc1ccc(OP(C)(=O)Nc2cccnc2)cc1 (configuration not stated),inactive: 16.6%,
CP(=O)(Oc1ccccc1)N1CCOC1=O (configuration not stated),inactive: 1.42%,
O=C(OCCCN1CCCC1)C(O)(c1ccccc1)C1CCCCC1 (configuration not stated),inactive: -15.3%,
OCCSCCO,inactive: 41.1%,
COc1ccccc1OP(C)(=O)Nc1c(C)n(C)n(-c2ccccc2)c1=O (configuration not stated),inactive: -1.03%,
CP(=O)(Nc1ccc(Cl)cc1)Oc1ccc(F)cc1 (configuration not stated),inactive: -2.07%,
CC(C)(C)c1ccc(OP(C)(=O)O)cc1,inactive: -19.6%,
COc1ccccc1OP(C)(=O)Nc1ccccc1Br (configuration not stated),inactive: -6.1%,
CN(C)C(=O)c1c([N+](=O)[O-])cc([N+](=O)[O-])cc1[N+](=O)[O-],,active: 3.55 µM
CP(=O)(OC12CC3CC(CC(C3)C1)C2)OC12CC3CC(CC(C3)C1)C2,inactive: -41.7%,

Compound,"activity change, negative = inhibition",Potency
CCOC(=O)c1ccc(NP(C)(=O)Oc2ccc(Cl)cc2)cc1 (configuration not stated),inactive: 36.4%,
CC(C)OP(=O)(F)OC(C)C,inactive: -0.991%,
C/C1=C2N=C(/C=C3N=C(/C(C)=C4\[N-][C@@](C)([C@H]5N=C1[C@@](C)(CCC(=O)NC[C@H](C)OP(=O)([O-])O[C@@H]1[C@H](O)[C@H](n6cnc7cc(C)c(C)cc76)O[C@@H]1CO)[C@@H]5CC(N)=O)[C@](C)(CC(N)=O)[C@H]4CCC(N)=O)[C@@](C)(CC(N)=O)[C@@H]\3CCC(N)=O)C(C)(C)[C@@H]/2CCC(N)=O.[C-]#N.[Co+3],inactive: 1.51% [at 2.98 µM],
CP(=S)(Nn1cnnc1)Oc1ccccc1 (configuration not stated),inactive: -20.5%,
COc1ccccc1OP(C)(=O)Nc1ccccc1 (configuration not stated),inactive: 6.11%,
CP(=O)(Nc1ccccc1Br)Oc1ccccc1 (configuration not stated),inactive: 11.1%,
CP(=O)(Oc1ccccc1)OC(c1ccccc1)C(F)(F)F (configuration not stated),inactive: 10.7%,
CP(=O)(Nc1ccc(SC(F)(F)F)cc1)Oc1ccc(Cl)cc1 (configuration not stated),inactive: 10.1%,
Cc1cc(C)cc(OP(C)(=O)Nc2ccc(SC(F)(F)F)cc2)c1 (configuration not stated),inactive: -3.13%,
CCc1ccc(OP(C)(=O)N2CCN(c3ccc([N+](=O)[O-])cc3)CC2)cc1 (configuration not stated),inactive: 29.4%,
CP(=O)(NC(=O)Nc1ccccc1)Oc1ccccc1 (configuration not stated),inactive: -9.16% [at 10 µM],
CCOP(C)(=S)SCC(=O)NC(C)C(=O)O (configuration not stated),inactive: -7.35%,
CN(C)CCS,inactive: 25.1%,
CCOC(=O)c1ccc(NP(C)(=O)Oc2ccc(OC)cc2)cc1 (configuration not stated),inactive: 27.1%,
CP(=O)(Nc1ccccn1)Oc1ccc(Cl)cc1 (configuration not stated),inactive: -0.119%,
CCN(CC)CCCOC(=O)C(O)(c1ccccc1)c1ccccc1,inactive: 2.28%,
O=C(O)C(O)(c1ccccc1)c1ccccc1,inactive: -0.574%,
Cc1cccc(C)c1OP(C)(N)=O (configuration not stated),inactive: -4.49%,
O=[N+]([O-])c1ccc2c(c1)C=Nc1ccccc1O2,inactive: 26.5%,
CCOC(=O)c1ccc(NP(C)(=O)Oc2ccccc2)cc1 (configuration not stated),inactive: 33%,
Cc1ccc(NP(C)(=O)Oc2ccccc2)c(C)c1 (configuration not stated),inactive: -2.13%,
COc1ccccc1OP(C)(=O)Nc1ccc(C)cc1 (configuration not stated),inactive: 9.37%,

Compound,"activity change, negative = inhibition",Potency
COc1ccc(OP(C)(=O)Nc2cccc(F)c2)cc1 (configuration not stated),inactive: 29.1%,
COc1ccccc1OP(C)(=O)Nc1cc(Cl)ccc1C (configuration not stated),inactive: -0.889%,
Cc1cc(C)cc(OP(C)(N)=O)c1 (configuration not stated),inactive: 8.76%,
O=[N+]([O-])c1cccc([N+](=O)[O-])c1,inactive,
Cc1ccc([N+](=O)[O-])cc1[N+](=O)[O-],inactive: -10.9%,
O=[N+]([O-])OCC(CO[N+](=O)[O-])(CO[N+](=O)[O-])CO[N+](=O)[O-],inactive: 33.6%,
CC1=NCCc2c1[nH]c1ccccc21.O=[N+]([O-])c1cc([N+](=O)[O-])c(O)c([N+](=O)[O-])c1,inactive: 0.787% [at 10 µM],
COc1ccccc1OP(C)(=O)Nc1cccc(Br)c1 (configuration not stated),inactive: 10.8%,
Cc1cc(C)cc(OP(C)(=O)Nc2ccc(C)cc2C)c1 (configuration not stated),inactive: 2.94%,
CCOC(=O)c1ccc(NP(C)(=O)Oc2cc(C)cc(C)c2)cc1 (configuration not stated),inactive: 16.5%,
CP(=O)(Nc1cccc(Br)c1)Oc1ccccc1 (configuration not stated),inactive: 2.59%,
Cc1cc(C)cc(OP(C)(=O)Nc2ccccn2)c1 (configuration not stated),inactive: -3.89%,
Cc1ccc(C)c(NP(C)(=O)Oc2ccccc2)c1 (configuration not stated),inactive: -8.23%,
O=[N+]([O-])c1cc([N+](=O)[O-])c(-n2nnc3ccccc32)c([N+](=O)[O-])c1,inactive: -18.7%,
CC(C)N(CCCl)C(C)C,inactive: -3.98%,
Cc1nc2ccc3ccccc3c2s1.O=[N+]([O-])c1cc([N+](=O)[O-])c(O)c([N+](=O)[O-])c1,inactive: 10.5%,
O=[N+]([O-])c1cc([N+](=O)[O-])c(Nc2nnnn2CCO)c([N+](=O)[O-])c1,inactive: -7.97%,
CN1CCCCC1COC(=O)C1(O)c2ccccc2CCc2ccccc21 (configuration not stated),inactive: -23.3%,
COc1ccccc1OP(C)(=O)Nc1c(C)cccc1C (configuration not stated),inactive: 3.88%,
CP(=O)(Nc1ccc(SC(F)(F)F)cc1)Oc1ccccc1 (configuration not stated),inactive: 39.4%,
CCCOc1ccc(NP(C)(=O)Oc2ccc(Cl)cc2)cc1 (configuration not stated),inactive: 11.6%,
